Values quoted from earlier work as cited in patent publication US6984404B1, “Methods for preparing coated drug particles and pharmaceutical formulations thereof” (University of Florida Research Foundation, Inc., priority 1998, dated 2006).

Details: cited from earlier work

CCCC1O[C@@H]2C[C@H]3[C@@H]4CCC5=CC(=O)C=C[C@]5(C)[C@H]4[C@@H](O)C[C@]3(C)[C@]2(C(=O)CO)O1 (some centres unmarked) [Budesonide, budesonide]
pulmonary deposition ratio, DPI (dry powder inhaler): 32% | pulmonary deposition ratio, MDI (metered dose inhaler (TA: Azmacort MDI with spacer)): 15%
